Consider 36 compounds from PubChem BioAssay AID652115 (Broad Institute, 2013).

By UniProt entry, the sequences of proteins in these tests, tags left out. Where a name states a change or a piece, a line headed by the entry shows the natural chain unless it says otherwise.
UniProt Q9NXA8: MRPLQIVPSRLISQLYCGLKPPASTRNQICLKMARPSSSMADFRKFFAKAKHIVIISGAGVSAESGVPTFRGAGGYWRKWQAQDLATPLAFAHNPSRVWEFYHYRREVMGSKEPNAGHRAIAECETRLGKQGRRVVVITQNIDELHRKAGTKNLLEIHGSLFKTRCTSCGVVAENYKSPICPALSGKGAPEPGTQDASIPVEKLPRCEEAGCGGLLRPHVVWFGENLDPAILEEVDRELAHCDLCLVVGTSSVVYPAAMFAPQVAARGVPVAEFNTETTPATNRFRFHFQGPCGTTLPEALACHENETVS

The list shows a part of the results, in another mix than the full data. Active and inactive are the calls of the source. Rule as the data show it: active = inhibition above about 15%; inconclusive = no clear call, values can overlap the other calls; inactive = below that.

The experiment addresses NAD-dependent protein deacylase sirtuin-5, mitochondrial (Homo sapiens) (UniProt Q9NXA8). The experiment is described as follows: SIRT5 desuccinylase inhibitors, primary screen, biochemical, fluorescence imaging, single point, set 5 (AID 652115). Particulars: Purified SirT5, succinyl-peptide AMC, trypsin-coupled fluorescence; at 15 µM; hits give high values.
As usually defined, the inhibition is the relative decrease from the control value, in per cent. With `O=C(OC1CN2CCC1CC2)c1ccc(Cl)cc1` (stereo unspecified), the inhibition is inactive: -1.3%.
Take `CCOP(=O)(Nc1cccc2ccccc12)OCC`: the inhibition was inactive: -6.87%.
Take `CCCOP(=S)(Nc1nc(N)cc(=O)[nH]1)OCCC`: the inhibition was inactive: -1.02%.
The same measure for `Nc1cccc2c([As](=O)(O)O)cccc12`: inactive: -2.31%; for `Cc1ccc(NCCc2c([N+](=O)[O-])cc([N+](=O)[O-])cc2[N+](=O)[O-])cc1`: inactive: 2.69%.
On to `COc1cc(I)ccc1[As](=O)(O)O`, for which the inhibition was inactive: -0.645%.
The same measure for `COc1ccc2nc(NP(=O)(c3ccccc3)c3ccccc3)sc2c1`: inactive: -1.94%; for `COc1ccc(CN2/C(=N\P(=O)(Oc3ccccc3)Oc3ccccc3)Cc3ccccc3C2C2CC2)cc1` (stereo unspecified): inactive: 6.71%.
The result for `O=P1(N(CCCl)CCCl)Nc2ccccc2N1` reads inactive: 1.25%; that for `Cc1cc(=O)[nH]c(N[N+](=O)[O-])n1`, inactive: 3.85%.
For `Cc1c2c(nc3ccccc13)SC(C(Cl)Cl)C2` (stereo unspecified), the inhibition is inactive: -0.33%.
For the compound `COc1ccc(N/C(=N/P(=O)(N2CCOCC2)N2CCOCC2)N2CCOCC2)cc1`, the inhibition was inactive: -0.21%.
The result for `O=[N+]([O-])c1cc(Oc2ccc([N+](=O)[O-])cc2C(F)(F)F)cc([N+](=O)[O-])c1` reads inactive: 7.04%.
The same measure for `Cc1ccc2nc3c(c(C)c2c1)CC(C(Cl)Cl)S3` (stereo unspecified): inactive: -4.42%; for `[N-]=[N+]=NC1CCCCC1NC(=O)c1cc([N+](=O)[O-])cc([N+](=O)[O-])c1` (stereo unspecified): inactive: -2.71%.
The same measure for `Cc1ccc(OP(=O)(Nc2ccc([N+](=O)[O-])cn2)Oc2ccc(C)cc2)cc1`: inactive: -3.93%; for `COc1cc(C(=O)NCC2(N3CCOCC3)CCCCC2)ccc1OCC(C)C`: inactive: 0.551%.
For the compound `O=[N+]([O-])c1ccc(-c2cc([N+](=O)[O-])c(O)c([N+](=O)[O-])c2)cc1`, the inhibition was inactive: 7.53%.
For `C[As](=O)(O)c1cccc(C(=O)O)c1`, the inhibition is inactive: 0.986%.
For `O=[As](O)(c1ccc(O)cc1)c1ccccc1O`, the inhibition is inactive: -0.057%.
Consider `O=C(OC1CN2CCC1CC2)c1cccc2[nH]cnc12` (stereo unspecified), for which the inhibition is inactive: -4.29%.
On to `CC(C)NC(=O)NP(=O)(Oc1ccccc1)Oc1ccccc1`, for which the inhibition was inactive: -1.43%.
Consider `CC(C)c1ccc(OP(=O)(Nc2ccccn2)Oc2ccccc2F)cc1` (stereo unspecified), for which the inhibition is inactive: -1.27%.
`COC(=O)C1(C)COP(=O)(N2CCCCCC2)OC1` (stereo unspecified): the inhibition was inactive: 0.604%.
Turning to `CCCCOc1ccc(C(=O)NCC2(N3CCCCC3)CCCCC2)cc1OC`, the inhibition is inactive: -3.84%.
Turning to `CC1CCNP(=O)(N(CCCl)CCCl)O1` (stereo unspecified), the inhibition was inactive: -1.04%.
`CCOC(=O)Nc1ccc([As](=O)(O)O)c(O)c1`: the inhibition is inactive: -0.481%.
On to `O=[N+]([O-])c1ccc(Nc2ccc(Oc3ccc([N+](=O)[O-])cc3[N+](=O)[O-])cc2)c([N+](=O)[O-])c1`, for which the inhibition is inactive: -5.08%.
As to `O=P(Nc1ccccn1)(c1cccc2ccccc12)c1cccc2ccccc12`, the inhibition is inactive: 0.434%.
The same measure for `Cc1cc(SC(NC=O)C(Cl)(Cl)Cl)ncn1` (stereo unspecified): inactive: -4.46%; for `CCOC(=O)Nc1cccc([As](=O)(O)O)c1`: inactive: -5.74%.
Regarding `O=C(Nc1ccncc1[N+](=O)[O-])c1ccc([N+](=O)[O-])cc1[N+](=O)[O-]`, the inhibition was inactive: -1.64%.
Turning to `O=C(O)C(=O)c1ccc(N(CCCl)CCCl)cc1`, the inhibition is inactive: -5.54%.
Take `COP1(=S)c2c(C)nn(CCC#N)c2N=C(c2ccc(F)cc2)N1C` (stereo unspecified): the inhibition is inactive: -1.28%.
With `CCOC(=O)c1ccc(NC(=O)C(C)(CCl)SC)cc1` (stereo unspecified), the inhibition is inactive: -1.27%.
As to `O=C(OC1CN2CCC1CC2)c1cccc([N+](=O)[O-])c1` (stereo unspecified), the inhibition was inactive: -2.17%.
